These are literature values, as cited in patent US20080306098A1, “Pharmacokinetics of protease inhibitors and other drugs” (priority 2006, published 2008).

The conditions of the data set: in vivo; cited from earlier work.

As usually defined, the half-life is the time in which the quantity being followed falls by half. Consider insulin, for which the half-life is 8 h.
